# Experimental data taken from PubChem BioAssay AID1424 (The Scripps Research Institute Molecular Screening Center, 2008).
# This is a selection; strong and weak results do not stand in their true shares. Calls of active or inactive are those of the source.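 How the source made its calls: active means activation above its plate's cutoff, the mean activation of test wells on that plate plus 3 SD (cut at about 19% in these data); inactive means the rest.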
# Tested on: transient receptor potential cation channel N1 (TRPN1/NompC), Danio rerio
# Experiment: TRPN1 activation via calcium influx – cell-based, HEK293, calcium fluorescence, zebrafish, primary screen (AID 1424);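 further: 0% = DMSO alone and 100% = 87 µM carbachol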
# Details: HEK293 zebrafish TRPN1-YFP, Fluo-8 calcium fluorescence; at 3 µM; stronger effect = higher value; 100% = response to 87 µM carbachol
# Outline: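 Control set: carbachol 87 µM as high control, DMSO as low control; system: HEK293 stable line with zebrafish TRPN1-YFP; read-out: % activation versus carbachol response; detection: intracellular calcium fluorescence with Fluo-8; doses: single test compound dose, 3 µM nominal, 0.3% DMSO; schedule: dye 1 h 37 °C plus 30 min RT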
row,SMILES,activation
1,O=P(Nc1nc2ccc(Cl)cc2s1)(c1ccccc1)c1ccccc1,inactive: 5.35%
2,O=C(O)c1ccccc1[As](=O)(O)O,inactive: -0.11%
3,CC(=O)Nc1ccc([As](=O)(O)O)cc1,inactive: 1.81%
4,O=C(O)CNc1ccc([As](=O)(O)O)cc1,inactive: -0.47%
5,O=[N+]([O-])c1cccc(NC2=NCC(CBr)S2)c1 (stereo not given),inactive: 1.85%
6,O=[N+]([O-])c1ncn(CCn2ncnc2[N+](=O)[O-])n1,inactive: 0%
7,CC(C)(C)C(=O)NC(Sc1ccncn1)C(Cl)(Cl)Cl (stereo not given),inactive: -0.88%
8,O=C(Nc1cc([As](=O)(O)O)ccc1O)c1ccccc1,inactive: 1.81%
9,CC1CCN(C(=O)Oc2c(Cl)cc(Cl)c3cccnc23)CC1,inactive: -0.68%
10,CC(C)=N/N=C(\N)N[N+](=O)[O-],inactive: 1%
11,CN(C)C(=O)OCCc1n(C)cc[n+]1C,inactive: -0.12%
12,CCN(/C(=N/P(=O)(N1CCOCC1)N1CCOCC1)N1CCOCC1)c1ccc(OC)cc1,inactive: 0.8%
13,Nc1ccc([As](=O)(O)c2ccc(N)cc2)cc1,inactive: -0.27%
14,C[N+]1=C2C=CC=CC=C2SC12C([N+](=O)[O-])=CC([N+](=O)[O-])=C[C-]2[N+](=O)[O-] (stereo not given),inactive: 3.16%
15,Cc1ccc(NP(=O)(Oc2ccccc2)Oc2ccccc2)nc1,inactive: 0.22%
16,CCc1nc2c(n1)c1c(non1O)c1c2no[n+]1[O-],inactive: 7.02%
17,O=[N+]([O-])c1cc([N+](=O)[O-])c(CCNc2ccccc2)c([N+](=O)[O-])c1,inactive: -1.04%
18,O=[N+]([O-])c1cccc2n[nH]nc12,inactive: 1.23%
19,CC(=O)N1C2C3N(C(C)=O)C1C1N(C(C)=O)C(C(N1C(C)=O)N3C(C)=O)N2C(C)=O,inactive: 1.34%
20,COc1ccc(C2=NCC(CBr)S2)cc1 (stereo not given),inactive: 1.75%
